Results on eight compounds are retold here after ChEMBL document CHEMBL1154364, “2-Benzimidazolyl-9-(chroman-4-yl)-purinone derivatives as JAK3 inhibitors” (Bioorg Med Chem Lett, 2009).

Molecules are shown by their SMILES.

A word on the IC50: it is the midpoint of a concentration-inhibition curve. Low readings indicate greater potency in that assay, high ones weaker potency in that assay.

This experiment addresses T1, Tyrosine-protein kinase JAK3 (Homo sapiens, UniProt P52333).
T1 sequence (P52333 whole entry): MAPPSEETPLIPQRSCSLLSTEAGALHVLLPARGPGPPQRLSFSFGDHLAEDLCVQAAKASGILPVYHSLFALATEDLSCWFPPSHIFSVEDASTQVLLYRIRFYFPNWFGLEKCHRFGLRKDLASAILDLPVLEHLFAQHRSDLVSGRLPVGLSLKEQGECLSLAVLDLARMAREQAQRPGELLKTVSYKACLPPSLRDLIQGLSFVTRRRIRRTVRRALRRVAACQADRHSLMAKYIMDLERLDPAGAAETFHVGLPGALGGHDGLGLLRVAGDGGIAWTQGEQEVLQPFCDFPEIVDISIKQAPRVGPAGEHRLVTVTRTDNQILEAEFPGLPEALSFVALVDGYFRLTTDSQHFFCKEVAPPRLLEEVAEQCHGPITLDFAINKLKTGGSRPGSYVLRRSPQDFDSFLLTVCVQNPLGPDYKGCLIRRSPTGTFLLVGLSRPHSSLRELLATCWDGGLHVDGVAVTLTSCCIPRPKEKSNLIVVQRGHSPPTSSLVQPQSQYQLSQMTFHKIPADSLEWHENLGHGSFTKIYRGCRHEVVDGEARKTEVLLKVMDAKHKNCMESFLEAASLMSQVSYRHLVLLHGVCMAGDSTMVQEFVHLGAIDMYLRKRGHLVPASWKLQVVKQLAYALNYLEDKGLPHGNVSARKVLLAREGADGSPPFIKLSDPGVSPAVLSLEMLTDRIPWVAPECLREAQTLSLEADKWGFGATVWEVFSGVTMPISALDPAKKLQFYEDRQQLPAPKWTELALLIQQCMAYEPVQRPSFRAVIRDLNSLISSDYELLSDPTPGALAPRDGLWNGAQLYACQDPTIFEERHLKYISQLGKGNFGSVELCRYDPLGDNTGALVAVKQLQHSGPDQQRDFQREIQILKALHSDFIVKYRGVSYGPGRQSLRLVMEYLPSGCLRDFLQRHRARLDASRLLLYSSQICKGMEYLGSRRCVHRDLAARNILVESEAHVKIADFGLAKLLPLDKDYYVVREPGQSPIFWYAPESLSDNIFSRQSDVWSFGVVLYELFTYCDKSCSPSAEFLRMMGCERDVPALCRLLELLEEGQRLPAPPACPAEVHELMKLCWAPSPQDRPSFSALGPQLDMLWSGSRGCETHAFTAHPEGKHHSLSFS
As to `O=c1[nH]c2cnc(-n3cnc4ccccc43)nc2n1[C@@H]1CCOc2c(F)cccc21`, the half-inhibitory concentration (IC50) was 28 nM.
With `N#Cc1ccc2ncn(-c3ncc4[nH]c(=O)n(Cc5cccc(F)c5F)c4n3)c2c1` the figure was 17 nM.
With `O=c1[nH]c2cnc(-n3cnc4ccccc43)nc2n1C1CCOc2c(F)cccc21` (racemic) the figure was 30 nM; with `O=c1[nH]c2cnc(-n3cnc4cc(C(F)(F)F)ccc43)nc2n1C1CCOCC1`, 245 nM.
To `O=c1[nH]c2cnc(-n3cnc4ccc(F)cc43)nc2n1Cc1cccc(F)c1F` belongs 108 nM.
Regarding `O=c1[nH]c2cnc(-n3cnc4ccccc43)nc2n1[C@H]1CCOc2c(F)cccc21`, the half-maximal inhibitory concentration (IC50) turned out to be 540 nM.
To `O=c1[nH]c2cnc(-n3cnc4ccccc43)nc2n1C1CCOc2cc(F)ccc21` (racemic) belongs 260 nM; to `O=c1[nH]c2cnc(-n3cnc4ccccc43)nc2n1C1CCOc2ccc(F)cc21` (racemic), 28 nM.
